Assay results reported in PubChem BioAssay (EPA / NIEHS).
Values joined by “and” are separate entries in the source; they are usually repeats but may differ in a detail not shown here. Equal values may be shown once. The list shows a part of the results, in another mix than the full data. Some structures have more than one record in an assay (separate samples or runs), and their calls can disagree. Active and inactive are the calls of the source. The calls were made as follows: active = hit-call score of the fitted dose curve at least 0.9, where 1 is the maximum; inactive = score below 0.9.

Read-out: Tissue Factor, F3 (gene 2152)
Assay: BSK_CASM3C_TissueFactor: BioMAP Diversity Plus: CASM3C Assay for Tissue Factor Biomarker Activity (AID 2283052);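 also: cell surface tissue factor protein level read by ELISA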
Conditions: actives raise or lower the signal; primary human coronary artery smooth muscle cells

| SMILES | outcome |
| --- | --- |
| CC(C)OP(=S)(OC(C)C)SCCNS(=O)(=O)c1ccccc1 | inactive |
| O=C1C2CC=CCC2C(=O)N1SC(Cl)(Cl)C(Cl)Cl (stereo unspecified) | inactive |
| O=[N+]([O-])c1ccc([N+](=O)[O-])cc1 | inactive |
| O=C(Cl)Oc1ccccc1 | inactive |
| Cc1cc([N+](=O)[O-])cc([N+](=O)[O-])c1O | inactive |
| CN(C(=O)Cc1cccc2occc12)[C@H]1CC[C@@]2(CCCO2)C[C@@H]1N1CCCC1 | inactive |

Read-out: Interferon-gamma inducible Protein 10 (IP10), CXCL10 (gene 3627)
Assay: BSK_hDFCGF_IP10: BioMAP Diversity Plus: hDFCGF Assay for Interferon-gamma inducible Protein 10 (IP10) Biomarker Activity (AID 2283053)
Conditions: actives raise or lower the signal; primary human foreskin fibroblasts
Outline: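 ELISA quantification of IP-10 after a 24 h chemical exposure of human dermal foreskin fibroblast primary cultures. Both increases and decreases versus DMSO fitted.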

| SMILES | AC50 | outcome |
| --- | --- | --- |
| CC(C)OP(=S)(OC(C)C)SCCNS(=O)(=O)c1ccccc1 | active: 36.6 µM and active: 32.4 µM and active: 31.5 µM | – |
| O=C1C2CC=CCC2C(=O)N1SC(Cl)(Cl)C(Cl)Cl (stereo unspecified) | active: 523 nM | – |
| O=[N+]([O-])c1ccc([N+](=O)[O-])cc1 | – | inactive |
| O=C(Cl)Oc1ccccc1 | – | inactive |
| Cc1cc([N+](=O)[O-])cc([N+](=O)[O-])c1O | active: 20000 nM | – |
| CN(C(=O)Cc1cccc2occc12)[C@H]1CC[C@@]2(CCCO2)C[C@@H]1N1CCCC1 | – | inactive |

Read-out: Urokinase-type plasminogen activator receptor (uPAR), PLAUR (gene 5329)
Assay: BSK_CASM3C_uPAR: BioMAP Diversity Plus: CASM3C Assay for Urokinase-type plasminogen activator receptor (uPAR) Biomarker Activity (AID 2283054)
Conditions: actives raise or lower the signal; primary human coronary artery smooth muscle cells

| SMILES | outcome |
| --- | --- |
| CC(C)OP(=S)(OC(C)C)SCCNS(=O)(=O)c1ccccc1 | inactive |
| O=[N+]([O-])c1ccc([N+](=O)[O-])cc1 | inactive |
| O=C(Cl)Oc1ccccc1 | inactive |
| Cc1cc([N+](=O)[O-])cc([N+](=O)[O-])c1O | inactive |
| CN(C(=O)Cc1cccc2occc12)[C@H]1CC[C@@]2(CCCO2)C[C@@H]1N1CCCC1 | inactive |

Read-out: Vascular cell adhesion molecule 1 (VCAM1), VCAM1 (gene 7412)
Assay: BSK_CASM3C_VCAM1: BioMAP Diversity Plus: CASM3C Assay for Vascular cell adhesion molecule 1 (VCAM1) Biomarker Activity (AID 2283055)
Conditions: actives raise or lower the signal; primary human coronary artery smooth muscle cells

| SMILES | outcome | AC50 |
| --- | --- | --- |
| CC(C)OP(=S)(OC(C)C)SCCNS(=O)(=O)c1ccccc1 | inactive | – |
| O=C1C2CC=CCC2C(=O)N1SC(Cl)(Cl)C(Cl)Cl (stereo unspecified) | – | active: 7.72 µM |
| O=[N+]([O-])c1ccc([N+](=O)[O-])cc1 | inactive | – |
| O=C(Cl)Oc1ccccc1 | inactive | – |
| Cc1cc([N+](=O)[O-])cc([N+](=O)[O-])c1O | inactive | – |
| CN(C(=O)Cc1cccc2occc12)[C@H]1CC[C@@]2(CCCO2)C[C@@H]1N1CCCC1 | inactive | – |

Read-out: Collagen III, COL3A1 (gene 1281)
Assay: BSK_hDFCGF_CollagenIII: BioMAP Diversity Plus: hDFCGF Assay for Collagen III Biomarker Activity (AID 2283056)
Conditions: actives raise or lower the signal; primary human foreskin fibroblasts
Outline: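 ELISA read-out of collagen III from human skin fibroblast cultures sampled 24 h post-dosing. Values were derived by bidirectional fitting relative to the DMSO vehicle control.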

| SMILES | AC50 | outcome |
| --- | --- | --- |
| CC(C)OP(=S)(OC(C)C)SCCNS(=O)(=O)c1ccccc1 | active: 36.1 µM and active: 33.6 µM and active: 31.7 µM | – |
| O=C1C2CC=CCC2C(=O)N1SC(Cl)(Cl)C(Cl)Cl (stereo unspecified) | active: 941 nM | – |
| O=[N+]([O-])c1ccc([N+](=O)[O-])cc1 | – | inactive |
| O=C(Cl)Oc1ccccc1 | – | inactive |
| Cc1cc([N+](=O)[O-])cc([N+](=O)[O-])c1O | active: 12100 nM | – |
| CN(C(=O)Cc1cccc2occc12)[C@H]1CC[C@@]2(CCCO2)C[C@@H]1N1CCCC1 | – | inactive |

Read-out: Epidermal growth factor receptor (EGFR), EGFR (gene 1956)
Assay: BSK_hDFCGF_EGFR: BioMAP Diversity Plus: hDFCGF Assay for Epidermal growth factor receptor (EGFR) Biomarker Activity (AID 2283057)
Conditions: actives raise or lower the signal; primary human foreskin fibroblasts
Experimental: BSK_hDFCGF is a cell-based, multiplexed-readout assay that uses foreskin fibroblast, a human skin primary cell, with measurements taken at 24 hours after chemical dosing in a 96-well plate.BSK_hDFCGF_EGFR is an assay component measured in the BSK_hDFCGF assay. It measures EGFR antibody related to regulation of gene expression using ELISA technology.Data from the assay component BSK_hDFCGF_EGFR was analyzed into 1 assay endpoint. This assay endpoint, BSK_hDFCGF_EGFR, was analyzed with bidirectional fitting relative to DMSO as the negative control and baseline of activity. Using a type of binding reporter, gain or loss-of-signal activity can be used to understand changes in the signaling as they relate to the gene EGFR. Furthermore, this assay endpoint can be referred to as a primary readout, because this assay has produced multiple assay endpoints where this one serves a signaling function. To generalize the intended target to other relatable targets, this assay endpoint is annotated to the kinase intended target family, where the subfamily is receptor tyrosine kinase.
The levels of cell surface (or secreted, indicated by the prefix "s") biomarker endpoints were measured by ELISA. Overt cytotoxicity to cells in confluent adherent cultures (all systems other than the BT system) was assessed by measuring total protein levels using sulforhodamine B (SRB) staining in parallel cultures at the time of biomarker measurements, indicated as SRB endpoints. For proliferation assays for adherent cell types, individual cell types are cultured at sub-confluence and relative cell numbers quantified by SRB staining at time points optimized for each system (48 h: 3C and CASM3C systems; 72 h: BT and HDF3CGF systems; 96 h: SAg system). SRB was performed by staining cells with 0.1% SRB after fixation with 10% TCA and reading wells at 560 nm.Viability and proliferation of PBMC (T cells) was quantified by Alamar Blue reduction for the SAg and BT systems. For PBMC viability (referred to as PBMC Cytotoxicity within the assay endpoint names), cells were plated (75,000/well in a 96-well plate) and then chemical samples added for 1 h before addition of activators, SEB and TSST-1 (20 ng/mL final concentration each). Cells were incubated for 90 h. Then, Alamar Blue (20 uL/well) (Invitrogen, Cat DAL1100) was added for 6 h, and the plates were read with a fluorescence microplate reader at 546/580 nm (excitation/emission). For PBMC proliferation, cells were plated and activated as above but incubated for only 16 h prior to addition of Alamar Blue. Plates were read after 6 h.

| SMILES | AC50 | outcome |
| --- | --- | --- |
| CC(C)OP(=S)(OC(C)C)SCCNS(=O)(=O)c1ccccc1 | active: 27.6 µM and active: 34 µM | inactive |
| O=[N+]([O-])c1ccc([N+](=O)[O-])cc1 | active: 2.85 µM | – |
| O=C(Cl)Oc1ccccc1 | – | inactive |
| Cc1cc([N+](=O)[O-])cc([N+](=O)[O-])c1O | – | inactive |
| CN(C(=O)Cc1cccc2occc12)[C@H]1CC[C@@]2(CCCO2)C[C@@H]1N1CCCC1 | – | inactive |

Read-out: Interleukin-8 (IL8), CXCL8 (gene 3576)
Assay: BSK_hDFCGF_IL8: BioMAP Diversity Plus: hDFCGF Assay for Interleukin-8 (IL8) Biomarker Activity (AID 2283058)
Conditions: actives raise or lower the signal; primary human foreskin fibroblasts
Outline: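 Cells used are human skin primary fibroblasts. Chemical is added, cultures run 24 h, then IL-8 is quantified by ELISA, and gain or loss versus DMSO control is fitted in both directions.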

| SMILES | AC50 | outcome |
| --- | --- | --- |
| CC(C)OP(=S)(OC(C)C)SCCNS(=O)(=O)c1ccccc1 | active: 29.2 µM and active: 36.1 µM | inactive |
| O=[N+]([O-])c1ccc([N+](=O)[O-])cc1 | – | inactive |
| O=C(Cl)Oc1ccccc1 | – | inactive |
| Cc1cc([N+](=O)[O-])cc([N+](=O)[O-])c1O | – | inactive |
| CN(C(=O)Cc1cccc2occc12)[C@H]1CC[C@@]2(CCCO2)C[C@@H]1N1CCCC1 | – | inactive |
